# Binding of CDR-mutated scFvs to a peptide of the spike HR2 region

From the AlphaSeq antibody data of Engelhart et al. 2022 (doi:10.1038/s41597-022-01779-4), copy in the FLAb collection.

All variants were tested on one target, the spike HR2 peptide PDVDLGDISGINAS (SARS-CoV-2).

The variants keep the light chain, the linker and the frameworks of Ab-91 (scFv order VL, a 15-residue (Gly4Ser)3 linker, VH).
VL: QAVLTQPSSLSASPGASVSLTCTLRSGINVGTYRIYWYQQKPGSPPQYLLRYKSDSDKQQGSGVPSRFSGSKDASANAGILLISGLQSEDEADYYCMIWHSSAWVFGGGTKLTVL
VH: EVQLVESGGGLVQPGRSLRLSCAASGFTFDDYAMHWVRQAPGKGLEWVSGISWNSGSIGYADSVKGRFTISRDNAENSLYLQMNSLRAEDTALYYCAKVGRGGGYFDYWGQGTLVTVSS

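The starting antibody came from a phage panning campaign against this peptide. The library (AAYL51) carries one to three amino acid substitutions per variant, with no insertions or deletions. Affinity was read by AlphaSeq, a pooled yeast mating assay with surface-displayed partners. The frequency of each diploid, read from paired DNA barcodes, reflects how well the two displayed proteins bind. Read counts were normalised to the haploid input and turned into Kd by a linear fit to BCL2-family pairs of known affinity, for each replicate. Each pool was mated in three replicate cultures.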

The parent's heavy chain CDRs are GFTFDDYAMH, GISWNSGSIGYADSVK, VGRGGGYFDY; each variant's own CDRs replace them letter for letter.
The Kd shown is the geometric mean over detected replicates; a lower Kd is a better binder.
"not detected" marks a missing value. The strain was present, yet no cells mated with the target were sequenced in any replicate, which points to weak or no binding.
In this assay the parent's reference entry averaged 72 nM; its copy inside this library read 7.5 nM.

| CDR-H1 | CDR-H2 | CDR-H3 | apparent Kd | seen in | signal with controls |
|---|---|---|---|---|---|
| GFTFDDYAMH | GISWNSGSIGYADSVK | VGSGGLYFDR | 210 nM | 3/3 | 4/9 |
| GFTFDDYYMH | GISWNSGSIGIADSVK | VGRGYGYFDY | 160 µM | 2/3 | 9/9 |
| GFTFDDYAMM | GISWNSGSIGYNDSVK | VGNGGGYFDY | 140 µM | 2/3 | 6/9 |
| GFTFDDFAMC | GISWNSGSIGYADSVK | VGRGGGYFDY | 13 nM | 3/3 | 2/9 |
| GFTFDDYAMH | GITWNSTSIGYADSVA | VGRGGGYFDY | not detected | 0/3 | 1/9 |
| GFTFDDYAME | GISWNSGSIGYADSVK | VGFGGGYFDY | 60 µM | 1/3 | 5/9 |
| GFTFDDYAMH | GLSENSGSIGYADSVK | VGQGGGYFDY | 340 nM | 1/3 | 0/9 |
| GFSFDDYAMH | GISWHSGSIGYADSVK | VGRGGWYFDY | 44 µM | 1/3 | 5/9 |
| GFTFDDYAMH | GISWNSGSIFYEDSVK | VGQGGGYFDY | 240 µM | 3/3 | 6/9 |
| GFTKDDYAMH | GISWVSGSAGYADSVK | VGRGGGYFDY | not detected | 0/3 | 4/9 |
| GGTFDDYAQH | GISWNNGSIGYADSVK | VGRGGGYFDY | not detected | 0/3 | 1/9 |
| GFTFDDYAMH | GISWNSGSIGYADSPK | RGRGGGYFAY | 140 µM | 2/3 | 6/9 |
| GFTFDDYANH | GISWNSGSIGYADSVK | SGRGGGYFYY | 45 µM | 1/3 | 2/9 |
| GFTFDDYAMF | GISWNSGSIGYADSNK | VGRGIGYFDY | 39 µM | 2/3 | 1/9 |
| GFTFDDTAMH | GISWNSGSIGYADSVK | VGRKEGYFDY | not detected | 0/3 | 1/9 |
| GFTFDDYAMT | GIHWNSGSIGYADSVK | VGRAGGYFDY | 360 µM | 1/3 | 2/9 |
| GFTFDDYAMH | GISWNSGSIGFADSVK | VGRGKGYVDY | 4.8 µM | 2/3 | 1/9 |
| GFTFDQYAMH | GISWDSGSIGVADSVK | VGRGGGYFDY | 2.3 nM | 3/3 | 4/9 |
| GFTFDDYAMW | GISWNSAGIGYADSVK | VGRGGGYFDY | not detected | 0/3 | 0/9 |
| GFTFDDYAMH | GIYWNSGSIGYADSVK | VGAGGGYFDD | not detected | 0/3 | 0/9 |
| GFTFDDYAMH | GISWNSGSIGYADSVK | VGRGGGWDGY | 27 nM | 3/3 | 1/9 |
| GFTFDDYAMH | GPSWNSGSIGYLDSVK | VGRGGGYVDY | 33 µM | 1/3 | 0/9 |
| GFTFDDYAMH | GISWNSGSKGYADYVK | VARGGGYFDY | 12 µM | 3/3 | 4/9 |
| GFTFDDYAAR | GISWNSGSIGYADSVK | VGRGGGYFDY | 330 µM | 1/3 | 0/9 |
| GFTFDDYAMH | GISWESGSIGYADSVK | VDRGGGYFDW | not detected | 0/3 | 0/9 |
| GFGFVDGAMH | GISWNSGSIGYADSVK | VGRGGGYFDY | 52 µM | 2/3 | 3/9 |
| QFTFDDYAEH | GISWNSGSCGYADSVK | VGRGGGYFDY | 3.0 µM | 3/3 | 7/9 |
| GFTFDDYAMH | GISWASGSIGYADSVK | VGYGGGHFDY | 21 µM | 1/3 | 4/9 |
| GFTFDDYAMH | GISWNSGSTGVADSVK | VGRGGGQFDY | 1.3 µM | 3/3 | 2/9 |
| GFTFDDYAMH | GISWNSGSIGAADSVM | VGRGGGYFDY | 370 nM | 3/3 | 1/9 |
| GFTFDDYAMH | GISWNSGSIGWAISVK | VGRGGGYFDY | not detected | 0/3 | 0/9 |
| GFTCDDYAMH | GISWNPGSIGYADSVK | VGRGGGYFIY | not detected | 0/3 | 1/9 |
| GNTFDDYAMH | GISWNSGSIGLADSVK | VGRGGGYFDY | 120 nM | 1/3 | 0/9 |
| GFTYDDYATH | GISWPSGSIGYADSVK | VGRGGGYFDY | 6.7 µM | 1/3 | 3/9 |
| GFKFDDYAMH | GISWNSGSIGYADSVK | YGRVGGYFDY | 120 µM | 2/3 | 1/9 |
| GFTFDDYAMH | GISWNSGSIGYAISVK | VGRGGGHFDM | 240 µM | 3/3 | 3/9 |
| GETDDDYAMH | GISWNSGSIGYADSVK | VCRGGGYFDY | not detected | 0/3 | 0/9 |
| IFTFDDYAMH | GISWNSGSIGYATSVI | VGRGGGYFDY | not detected | 0/3 | 0/9 |
| GFTFDDYAMH | GIDWNWGSIWYADSVK | VGRGGGYFDY | 11 µM | 1/3 | 0/9 |
| GFTFDDYAMH | GMSWFSGSIGYADSVK | VGRGGYYFDY | not detected | 0/3 | 2/9 |
| GFTVDDYAMH | GISWNSGSQGYADSVK | VFRGGGYFDY | 200 µM | 1/3 | 0/9 |
| GFTFHDYAMH | TIQWNSGSIGYADSVK | VGRGGGYFDY | 20 µM | 3/3 | 5/9 |
| GFTFDCYAMH | GRSWNSGAIGYADSVK | VGRGGGYFDY | not detected | 0/3 | 3/9 |
| GFTIDDYAMH | GISCNSGSIGYADSWK | VGRGGGYFDY | 150 µM | 1/3 | 1/9 |
| GFTFDDYAMH | GISWNSGSIGYADSVV | VGRGMRYFDY | 3.2 mM | 1/3 | 5/9 |
| GFTFRDYAFH | GISWNSGSIGYADSVK | VGRGGGQFDY | 46 µM | 1/3 | 1/9 |
| GFMFDDYAIH | GISWNSGSIGYADSVK | VGRGGGYFVY | not detected | 0/3 | 4/9 |
| PFTFDDYAMH | GISWSSGSIGYADSVK | VGRGGGYFDY | 930 µM | 1/3 | 3/9 |
| GFTFCDYAMH | GISWVSGSIGYADSVK | VGRGGGYFDY | 7.9 µM | 2/3 | 1/9 |
| GFTKDDYAMH | GISWNSGSIGYADSVS | VGRDGGYFDY | not detected | 0/3 | 1/9 |
| GFTFDDYAMH | GISWNSGEIGYADSVK | VKRGGGYFFY | not detected | 0/3 | 1/9 |
| GGTFDDYAMH | GISWNSGSIGYACSVK | VGRGGGYFGY | not detected | 0/3 | 1/9 |
| GFGFDDYAMH | GISWNSGSIEYADVVK | VGRGGGYFDY | not detected | 0/3 | 0/9 |
| GFTFDDYPMH | GISWNSGSIGYAQSVK | VGRGGGYDDY | 4.8 µM | 3/3 | 1/9 |
| GFTFDDYALH | GISWNSGSIGYAQSVK | VGRGGGYFDV | 4.5 µM | 2/3 | 4/9 |
| GFTFDDYAMH | GISWNSWSIGYADSVK | VGDGGGYGDY | 70 µM | 3/3 | 6/9 |
| GPTFDDYAMH | GVSMNSGSIGYADSVK | VGRGGGYFDY | 82 µM | 1/3 | 3/9 |
| SFTFSDYAMH | GISWNSGSIGHADSVK | VGRGGGYFDY | 100 µM | 2/3 | 2/9 |
| GFTFDDYAMH | GISWNSGSIGYAGSVT | VTRGGGYFDY | 120 µM | 3/3 | 9/9 |
| GFTFDDYAMH | GISWNSGSIGYADKVK | EGRGGGEFDY | 19 nM | 3/3 | 1/9 |
| GATFDDYAMH | TISWNSGSIGYADSVK | VARGGGYFDY | not detected | 0/3 | 1/9 |
| GFTMDDYAMP | GISWNSGSIGYADSVK | VGRVGGYFDY | not detected | 0/3 | 0/9 |

Picked from the list: the 4 lowest averages where every replicate gave a value.

CDR-H1,CDR-H2,CDR-H3,apparent Kd,seen in,signal with controls
GFTFDQYAMH,GISWDSGSIGVADSVK,VGRGGGYFDY,2.3 nM,3/3,4/9
GFTFDDFAMC,GISWNSGSIGYADSVK,VGRGGGYFDY,13 nM,3/3,2/9
GFTFDDYAMH,GISWNSGSIGYADKVK,EGRGGGEFDY,19 nM,3/3,1/9
GFTFDDYAMH,GISWNSGSIGYADSVK,VGRGGGWDGY,27 nM,3/3,1/9

Empty control strains, which show no peptide, gave a signal in 21% of pairings with library AAYL51; the median was 34 µM and 95% of these signals were weaker than 1.8 µM. No background was subtracted. For each scFv, signals with the empty controls are counted beside the result.